Assay: Parallel artificial membrane permeability assay (PAMPA-BBB)
Settings: source data

Pe (10-6 cm s-1) Experimental 1: 14.9 10-6 cm s-1
Compound: CNCCCN1c2ccccc2CCc2ccccc21 [Desipramine]

Source: publication PMC6595003, “Insights into real-time chemical processes in a calcium sensor protein-directed dynamic library” (Nature Communications, 2019)
